# Measured values taken from US12059562B2, “Systems for electrical stimulation” (priority 2018, dated 2024).
# Settings: micropost tips 40% G6PD and 60% PEO 200k versus uncompressed powder
# From the text: To perform the activity assay on G6PD, an activity assay kit (Sigma Aldrich) was used which measures the amount of oxidized glucose-6-phosphate.
substance,measurement,value
glucose-6-phosphate dehydrogenase,enzymatic activity after the manufacturing process,maintain their activity
